The values below come from patent US20100105655A1, “NOVEL COMPOUNDS 515” (ASTRAZENECA AB, priority 2008, published 2010).

Amino acid sequences for entries named in this document (tags omitted). Residues count along the entry.
UniProt P08069, 31-1367 limits assumed: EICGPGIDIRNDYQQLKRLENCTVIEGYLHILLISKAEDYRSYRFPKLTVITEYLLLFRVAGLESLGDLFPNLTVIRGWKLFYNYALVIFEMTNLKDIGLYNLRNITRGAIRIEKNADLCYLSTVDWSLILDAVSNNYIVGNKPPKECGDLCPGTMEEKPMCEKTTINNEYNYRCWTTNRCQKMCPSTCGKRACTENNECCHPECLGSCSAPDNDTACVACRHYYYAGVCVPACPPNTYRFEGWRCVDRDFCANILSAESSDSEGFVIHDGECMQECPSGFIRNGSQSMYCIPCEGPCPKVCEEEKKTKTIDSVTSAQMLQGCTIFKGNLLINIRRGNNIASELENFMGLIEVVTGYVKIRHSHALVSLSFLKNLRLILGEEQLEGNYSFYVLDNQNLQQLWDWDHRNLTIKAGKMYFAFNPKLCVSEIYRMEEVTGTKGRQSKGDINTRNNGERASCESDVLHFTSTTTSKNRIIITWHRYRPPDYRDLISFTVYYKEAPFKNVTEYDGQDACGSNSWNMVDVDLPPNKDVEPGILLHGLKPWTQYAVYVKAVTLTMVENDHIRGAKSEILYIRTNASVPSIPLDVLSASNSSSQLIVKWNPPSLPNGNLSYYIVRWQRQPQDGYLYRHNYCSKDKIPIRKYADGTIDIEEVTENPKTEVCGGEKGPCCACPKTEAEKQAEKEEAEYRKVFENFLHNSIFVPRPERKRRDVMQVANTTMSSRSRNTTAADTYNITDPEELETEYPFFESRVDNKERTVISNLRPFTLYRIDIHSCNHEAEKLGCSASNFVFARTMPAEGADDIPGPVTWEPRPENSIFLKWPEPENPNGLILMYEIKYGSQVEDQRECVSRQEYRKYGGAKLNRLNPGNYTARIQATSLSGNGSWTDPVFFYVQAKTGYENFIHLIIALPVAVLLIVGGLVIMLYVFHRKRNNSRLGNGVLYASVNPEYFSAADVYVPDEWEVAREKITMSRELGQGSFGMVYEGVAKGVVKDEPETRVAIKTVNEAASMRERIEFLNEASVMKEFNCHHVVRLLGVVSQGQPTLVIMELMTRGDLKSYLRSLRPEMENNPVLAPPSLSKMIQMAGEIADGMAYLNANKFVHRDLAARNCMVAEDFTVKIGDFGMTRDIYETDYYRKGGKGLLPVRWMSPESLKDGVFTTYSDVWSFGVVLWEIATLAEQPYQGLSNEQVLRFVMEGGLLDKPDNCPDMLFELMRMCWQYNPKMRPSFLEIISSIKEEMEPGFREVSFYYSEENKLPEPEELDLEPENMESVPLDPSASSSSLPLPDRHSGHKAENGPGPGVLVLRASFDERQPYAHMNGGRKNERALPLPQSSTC

The target of the assay is IGFR kinase (Homo sapiens, UniProt P08069). Kind of assay: Enzyme assay (c), IGFR kinase, Caliper LabChip. Format: biochemical. The settings on record: read-out: IGFR IC50; 30 nM IGFR kinase, 6 uM ATP, 3 uM peptide mix.

Turning to `CNC(=O)[C@@H](C)Oc1ccc(Nc2ncc(Cl)c(-c3cnc4c(F)cccn34)n2)c(OC)c1`, the IC50 was found to be 9 nM.
